The values below are quoted from earlier work in publication PMC10779535, “Design and Synthesis of D3R Bitopic Ligands with Flexible Secondary Binding Fragments: Radioligand Binding and Computational Chemistry Studies” (Molecules, 2023).

Amino acid sequences for entries named in this document (tags omitted). A change or cut given only in a name is not applied to a line headed by its entry.
UniProt P35462, whole entry: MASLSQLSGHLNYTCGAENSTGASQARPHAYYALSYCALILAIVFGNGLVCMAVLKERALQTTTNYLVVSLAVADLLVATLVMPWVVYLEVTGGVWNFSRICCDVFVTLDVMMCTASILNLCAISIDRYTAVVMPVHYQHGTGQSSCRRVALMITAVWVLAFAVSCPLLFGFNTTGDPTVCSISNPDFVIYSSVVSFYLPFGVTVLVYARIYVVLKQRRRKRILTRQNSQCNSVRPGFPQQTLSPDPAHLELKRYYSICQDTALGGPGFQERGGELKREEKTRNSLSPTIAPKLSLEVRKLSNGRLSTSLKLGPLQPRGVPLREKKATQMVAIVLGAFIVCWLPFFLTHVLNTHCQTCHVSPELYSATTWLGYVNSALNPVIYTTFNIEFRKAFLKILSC

The target in this series is D3R (Homo sapiens, UniProt P35462). Conditions: CJ-1882; cited from earlier work.

As for `CCCN(CCC1(O)CC(NC(=O)c2ccc3ccccc3c2)C1)C1CC1c1ccc(Cl)cc1` (stereo not shown) [CJ-1882], the “D3R/D2R, D3R versus D2R selectivity (fold)” value is recorded as 223.
